Measured values reported in PubChem BioAssay (NCI).
Some of these compounds have results that are not shown, active ones among them.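 Protocol summary: plate cells (96-well), add compound at 5 concentrations, incubate 48 h, interpolate endpoints linearly. GI50 marks 50% less growth.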

What was measured:
Assay in all cases: inhibition of tumour cell growth, NCI panel, 48 h; in the data active means GI50 below about 0.43 µM; inactive means the rest
OVCAR-3 ovarian = system: OVCAR-3 ovarian
SF-268 CNS = system: SF-268 CNS
UACC-62 melanoma = system: UACC-62 melanoma
BT-549 breast = system: BT-549 breast
UO-31 renal = system: UO-31 renal
EKVX NSCLC = system: EKVX NSCLC
MDA-N = system: MDA-N
K-562 leukemia = system: K-562 leukemia
MCF7 breast = system: MCF7 breast
RXF 393 renal = system: RXF 393 renal
LOX IMVI melanoma = system: LOX IMVI melanoma
SK-MEL-5 melanoma = system: SK-MEL-5 melanoma
CCRF-CEM leukemia = system: CCRF-CEM leukemia
RPMI-8226 leukemia = system: RPMI-8226 leukemia
NCI-H23 lung = system: NCI-H23 lung
COLO 205 colon = system: COLO 205 colon
SK-OV-3 ovarian = system: SK-OV-3 ovarian
SNB-75 CNS = system: SNB-75 CNS
SW-620 colon = system: SW-620 colon
OVCAR-5 ovarian = system: OVCAR-5 ovarian
HCT-116 colon = system: HCT-116 colon
HL-60(TB) leukemia = system: HL-60(TB) leukemia
SF-539 CNS = system: SF-539 CNS
MALME-3M melanoma = system: MALME-3M melanoma
PC-3 prostate = system: PC-3 prostate
SF-295 CNS = system: SF-295 CNS
NCI/ADR-RES ovarian = system: NCI/ADR-RES ovarian
HOP-62 NSCLC = system: HOP-62 NSCLC
MDA-MB-231 breast = system: MDA-MB-231 breast
SK-MEL-28 melanoma = system: SK-MEL-28 melanoma
CAKI-1 renal = system: CAKI-1 renal
DU-145 prostate = system: DU-145 prostate
MDA-MB-435 = system: MDA-MB-435
HT29 colon = system: HT29 colon
A549 NSCLC = system: A549 NSCLC
OVCAR-8 ovarian = system: OVCAR-8 ovarian
MOLT-4 leukemia = system: MOLT-4 leukemia
IGROV1 ovarian = system: IGROV1 ovarian
HCT-15 colon = system: HCT-15 colon
U251 CNS = system: U251 CNS
TK-10 renal = system: TK-10 renal
NCI-H226 lung = system: NCI-H226 lung
KM12 colon = system: KM12 colon
ACHN renal = system: ACHN renal
SR leukemia = system: SR leukemia
HCC-2998 colon = system: HCC-2998 colon
UACC-257 melanoma = system: UACC-257 melanoma
NCI-H522 lung = system: NCI-H522 lung
T-47D breast = system: T-47D breast
SN12C renal = system: SN12C renal
M14 melanoma = system: M14 melanoma
SNB-19 CNS = system: SNB-19 CNS
786-0 renal = system: 786-0 renal

Measured: GI50

CN1CCC=C(COC(=O)C(O)(c2ccccc2)C2CCCC2)C1 (stereo not drawn)
inactive: OVCAR-3 ovarian > 100 µM | SF-268 CNS > 100 µM | UACC-62 melanoma > 100 µM | BT-549 breast 30.1 µM | UO-31 renal 29.3 µM | EKVX NSCLC > 100 µM | MDA-N > 100 µM | K-562 leukemia 38.1 µM | MCF7 breast > 100 µM | RXF 393 renal > 100 µM | LOX IMVI melanoma > 100 µM | SK-MEL-5 melanoma 87.1 µM | CCRF-CEM leukemia > 100 µM | RPMI-8226 leukemia > 100 µM | NCI-H23 lung > 100 µM | COLO 205 colon > 100 µM | SK-OV-3 ovarian > 100 µM | SNB-75 CNS > 100 µM | SW-620 colon > 100 µM | OVCAR-5 ovarian > 100 µM | HCT-116 colon > 100 µM | HL-60(TB) leukemia > 100 µM | SF-539 CNS 78.7 µM | MALME-3M melanoma 71.9 µM | PC-3 prostate > 100 µM | SF-295 CNS > 100 µM | NCI/ADR-RES ovarian > 100 µM | HOP-62 NSCLC > 100 µM | MDA-MB-231 breast > 100 µM | SK-MEL-28 melanoma > 100 µM | CAKI-1 renal > 100 µM | DU-145 prostate > 100 µM | MDA-MB-435 = > 100 µM | HT29 colon 46.8 µM | A549 NSCLC > 100 µM | OVCAR-8 ovarian > 100 µM | MOLT-4 leukemia 53.4 µM | IGROV1 ovarian > 100 µM | HCT-15 colon > 100 µM | U251 CNS > 100 µM | TK-10 renal > 100 µM | NCI-H226 lung > 100 µM | KM12 colon > 100 µM | ACHN renal > 100 µM | SR leukemia 94.8 µM | HCC-2998 colon 41.1 µM | UACC-257 melanoma 31.7 µM | NCI-H522 lung > 100 µM | T-47D breast > 100 µM | SN12C renal > 100 µM | M14 melanoma 71 µM | SNB-19 CNS > 100 µM | 786-0 renal > 100 µM
